Like-named read-outs stand apart in the source and are kept apart here.
Target: T1, GlyT1 (Homo sapiens, UniProt P48067)
T1 construct: Human placental choriocarcinoma cells endogenously expressing GlyT1; endogenous in cells; host or cells: JAR human placental choriocarcinoma cells
T1 sequence (P48067 1-706): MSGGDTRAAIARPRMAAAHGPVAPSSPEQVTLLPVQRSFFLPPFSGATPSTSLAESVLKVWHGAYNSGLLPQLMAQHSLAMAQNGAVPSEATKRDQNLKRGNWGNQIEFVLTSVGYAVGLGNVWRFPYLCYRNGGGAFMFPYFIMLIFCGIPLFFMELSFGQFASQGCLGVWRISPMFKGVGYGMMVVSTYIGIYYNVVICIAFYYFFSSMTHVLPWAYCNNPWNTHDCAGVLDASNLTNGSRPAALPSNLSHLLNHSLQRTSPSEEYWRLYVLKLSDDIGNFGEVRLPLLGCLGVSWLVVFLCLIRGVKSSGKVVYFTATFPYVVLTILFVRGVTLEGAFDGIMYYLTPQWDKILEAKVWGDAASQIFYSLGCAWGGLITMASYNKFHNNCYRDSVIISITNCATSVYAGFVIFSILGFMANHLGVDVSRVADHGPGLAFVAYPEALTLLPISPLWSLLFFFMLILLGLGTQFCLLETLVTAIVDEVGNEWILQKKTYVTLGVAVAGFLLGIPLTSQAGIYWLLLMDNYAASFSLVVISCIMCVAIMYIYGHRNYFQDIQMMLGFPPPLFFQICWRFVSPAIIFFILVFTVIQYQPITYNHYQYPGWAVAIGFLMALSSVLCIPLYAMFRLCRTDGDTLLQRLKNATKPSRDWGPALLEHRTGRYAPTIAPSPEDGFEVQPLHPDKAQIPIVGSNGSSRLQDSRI
Assay: GlyT1 [14C]-glycine uptake inhibition in human placental choriocarcinoma (JAR) cells
Type: cell-based
Settings: inhibition of specific [14C]-glycine uptake, cells endogenously expressing GlyT1, read-out: Potency (IC50)
Procedure: Human placental choriocarcinoma cells endogenously expressing GlyT1 can be cultured using standard conditions. Cells can then be grown at 37° C. in a humidified atmosphere 40-48 hours before the assay. Culture medium can be removed from the culture plate, and cells can be incubated with an amount of TB1A buffer with or without the compounds of the present invention for a sufficient period of time. Then an amount of [^14C]-glycine diluted with TB1A can be added to each well. After incubation the microplates can be sealed and counted. Non-specific uptake of [^14C]-glycine can be determined in the presence of unlabeled glycine. To determine potencies, a range of concentrations of the compounds of the present invention can be added to the cells, followed by the fixed concentration of [^14C]-glycine. The concentration of the present compound that inhibited half of the specific uptake of [^14C]glycine (IC50 value) can be determined from the assay data by non-linear curve fitting.

Row | SMILES | IC50 (values given in μM) [µM] | IC50 (values in nM) [µM]
1 | Cn1cnc(S(=O)(=O)N2CC(C(NC(=O)c3ccc(Cl)cc3Cl)c3ccccn3)C2)c1 (single isomer, unassigned) [Compound 7a] | > 10 | –
2 | Cn1cnc(S(=O)(=O)N2CC(C(NC(=O)c3ccc(Cl)cc3Cl)c3ccccn3)C2)c1 (single isomer, unassigned) [Compound 7b, 2,4-dichloro-N-((1(1-methyl-1H-imidazol-4-ylsulfonyl)azetidin-3-yl)(pyridine-2-yl)methyl)benzamide] | – | 0.009
3 | Cn1cnc(S(=O)(=O)N2CC(C(NC(=O)c3ccc(Cl)cc3Cl)c3ccccn3)C2)c1 (stereo not drawn) [Compound 7] | – | 0.068

From patent US8207155B2, “Sulfonyl-azetidin-3-yl-methylamine amide analogs as GlyTl inhibitors, methods for making same, and use of same in treating psychiatric disorders” (Vanderbilt University, priority 2009, dated 2012)
